Assay results as given in patent publication US20180079912A1, “ANTIFOULING MATERIALS” (priority 2013, published 2018).

experiment: Coating thickness by ellipsometry (Cauchy model); assay type: physicochemical; conditions: Cauchy film model
Description: The thickness of the peptide-based coating was measured using α-SE spectroscopic ellipsometer (J. A. Woollam, Lincoln, Nebr., USA). […] The thickness of the layers and refractive indices were fitted according to the Cauchy model. The coefficients of the Cauchy equation were initially fixed for organic layers (An=1.45, Bn=0.01 and Cn=0), and an angle offset was permitted. Then, the parameters were allowed to be fitted to determine more accurate values.

Row | Substance | thickness of the coating by ellipsometry [nm]
1 | NH2-L-DOPA-D-(4F)Phe(2)-D-(4F)Phe(3)-COOMe [Peptide 4] | 3.36±0.05
2 | NH2-L-DOPA-D-(4F)Phe(2)-L-(4F)Phe(3)-COOMe [Peptide 3] | 3.48±0.03
3 | NH2-L-DOPA-L(4F)-Phe(2)-L(4F)-Phe(3)-COOMe [Peptide 1] | 3.41±0.05
4 | NH2-L-DOPA-L-(4F)Phe(2)-D-(4F)Phe(3)-COOMe [Peptide 2] | 3.46±0.04
